Laboratory results published in PubChem BioAssay AID1645858 (Buhrlage Lab, Dana-Farber Cancer Institute and Novartis …, 2021).
The entries are a selection whose mix differs from that of the whole data set. Some tests of the compounds listed are not included; inactive here does not mean inactive elsewhere. Activity calls are given as the source filed them. Cut-off read from the data, not from the text of the source: active = inhibition above about 30%; inactive = the rest.

Amino acid sequences for entries named in this document (tags omitted).
UniProt Q5T2D3, whole entry: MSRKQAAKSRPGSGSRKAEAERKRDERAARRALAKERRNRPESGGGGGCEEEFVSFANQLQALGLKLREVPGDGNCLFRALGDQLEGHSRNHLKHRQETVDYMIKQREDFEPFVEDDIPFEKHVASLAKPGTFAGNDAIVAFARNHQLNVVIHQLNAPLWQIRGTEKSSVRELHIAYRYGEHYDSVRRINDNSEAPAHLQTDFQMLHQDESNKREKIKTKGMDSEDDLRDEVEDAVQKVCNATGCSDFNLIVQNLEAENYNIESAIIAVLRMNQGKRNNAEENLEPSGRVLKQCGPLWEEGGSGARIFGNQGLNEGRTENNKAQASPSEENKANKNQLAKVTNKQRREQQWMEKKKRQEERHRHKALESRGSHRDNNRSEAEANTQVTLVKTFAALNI

Each molecule was assayed against OTU domain-containing protein 3 (Homo sapiens) (UniProt Q5T2D3) (assay: inhibitors of human OTUD3 deubiquitinase (AID 1645858)). Settings: purified OTUD3, Ub-rhodamine fluorescence, 2 h; at 25 µM; active compounds read high.
Cc1c(C(=O)NCC2(N(C)C)CCCCC2)oc2ccccc12 was tested, and the inhibition was inactive: -5.32%.
In the case of O=C(NCC1(N2CCCCC2)CCCCC1)c1ccc2ccccc2c1, the inhibition is reported as inactive: -4.53%.
O=C(NCC1(N2CCOCC2)CCCCC1)c1ccccc1F was tested, and the inhibition was inactive: -1.12%.
In the case of COc1ccc(C(=O)NCC2(N3CCOCC3)CCCCC2)cc1, the inhibition is reported as inactive: -3.24%.
With O=C(NCC1(N2CCCCC2)CCCCC1)c1ccc2c(c1)OCCO2 the inhibition was inactive: 4.36%.
Cc1c(C(=O)NCC2(N(C)C)CCCCC2)oc2ccc(F)cc12 was tested, and the inhibition was inactive: 4.73%.
For COc1cccc(C(=O)NCC2(N3CCCCC3)CCCCC2)c1, the inhibition was inactive: -36.1%.
